Literature values, collected in publication PMC9849693.

Biological target: RyR1 RyR1 peptide (Homo sapiens) (UniProt P21817)
Experiment: ITC

For Calmodulin (from UniProt P0DP23), the Kd is listed as 46 nM.
